Earlier results, collected in paper PMC5454592, “Pharmacological and Toxicological Properties of the Potent Oral γ-Secretase Modulator BPN-15606” (The Journal of Pharmacology and Experimental Therapeutics, 2017).

Test system: amyloid plaques
Parameters: method as in Sevigny et al., 2016
Conditions: 52-week, 166-patient phase 1b trial, relative to placebo; ref Sevigny et al., 2016; cited from earlier work

## aducanumab: anti-Aβ human monoclonal antibody (Biogen)
  amyloid plaques by florbetapir positron emission tomography imaging: statistically significant dose-dependent reduction of amyloid plaques
  cognitive decline (Mini-Mental State Examination and Clinical Dementia Rating): statistically significant reduction in cognitive decline
